From ChEMBL document CHEMBL5126602, “Polo-like Kinase 1 Inhibitors in Human Cancer Therapy: Development and Therapeutic Potential” (J Med Chem, 2022)
pIC50: −log10 of the molar value.

By UniProt entry, the sequences of proteins in these tests, tags left out. Where a name states a change or a piece, a line headed by the entry shows the natural chain unless it says otherwise.
UniProt Q9NYY3: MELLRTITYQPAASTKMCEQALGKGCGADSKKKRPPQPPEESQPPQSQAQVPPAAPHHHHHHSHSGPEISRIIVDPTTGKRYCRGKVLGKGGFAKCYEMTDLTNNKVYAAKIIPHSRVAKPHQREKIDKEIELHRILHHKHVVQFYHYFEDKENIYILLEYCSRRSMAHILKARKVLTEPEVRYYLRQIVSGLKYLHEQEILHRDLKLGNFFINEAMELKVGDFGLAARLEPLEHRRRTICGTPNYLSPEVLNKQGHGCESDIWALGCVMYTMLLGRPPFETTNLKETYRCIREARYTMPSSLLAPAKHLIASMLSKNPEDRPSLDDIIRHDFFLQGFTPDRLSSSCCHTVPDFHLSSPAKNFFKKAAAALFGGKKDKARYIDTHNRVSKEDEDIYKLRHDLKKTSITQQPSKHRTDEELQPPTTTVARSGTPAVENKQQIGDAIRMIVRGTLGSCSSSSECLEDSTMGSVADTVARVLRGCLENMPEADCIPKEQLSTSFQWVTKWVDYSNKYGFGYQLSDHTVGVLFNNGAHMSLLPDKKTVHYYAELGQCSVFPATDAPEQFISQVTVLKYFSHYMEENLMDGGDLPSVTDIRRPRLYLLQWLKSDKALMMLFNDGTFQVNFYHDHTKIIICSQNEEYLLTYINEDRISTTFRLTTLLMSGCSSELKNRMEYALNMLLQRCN

Target: Serine/threonine-protein kinase PLK2 (Homo sapiens, UniProt Q9NYY3)
Experiment: Inhibition of Myc-tagged PLK2 PBD (unknown origin) expressed in HEK293T cells using 5CF-GPMQTSpTPKNG-NH2 as substrate preincubated for 30 mins followed by substrate addition and measured after 30 mins by fluorescence polarization assay

pIC50: 6.66
SMILES: CC(=O)N1CCC[C@H]1C(=O)N[C@@H](CC(C)C)C(=O)N[C@@H](Cc1cncn1CCCCCCCCc1ccccc1)C(=O)N[C@@H](CO)C(=O)N[C@H](C(N)=O)[C@@H](C)OP(=O)(O)O
